Key:
WIL-FL C214S = conditions: 1 at 100 μM, LC 10 μM; 6.9×10^−3 without 1
ALMC2-derived LC = conditions: 1 at 100 μM, LC 5 μM, PK 100 nM; 3.83×10^−4 s^−1 without 1

CCN(CC)c1ccc2c(C)cc(=O)oc2c1 [Compound 1, 7-diethylamino-4-methylcoumarin]
protection from proteolysis by PK (5J8 LC): protects the 5J8 LC from proteolysis by PK | rate constant of PK proteolysis (WIL-FL C214S): 0.0028 s⁻¹ | proteolysis after 1 h of incubation by PK (ALMC2-derived LC): no proteolysis was detected
